Experiments:
[1] = tested on: bacterial growth; ampicillin pre-incubated with SAV2435; assay: Ex vivo drug-metabolizing aptamer screening (bacterial growth in ampicillin pre-incubated with protein); conditions: 5 μg/ml or 500 μg/ml ampicillin
[2] = tested on: bacterial growth; ampicillin pre-incubated with CTR107; assay: as above; conditions: 5 μg/ml or 500 μg/ml ampicillin
[3] = target: L. innocua LIN2189 variant DUB (E157A, E185L; SEQ ID NO:32) (Listeria innocua, UniProt Q929T5, E157A/E185L); format: binding; conditions: FAM
[4] = target: L. innocua LIN2189 variant E185L (SEQ ID NO:30) (Listeria innocua, UniProt Q929T5, E185L); format: binding; conditions: FAM
[5] = target: C. tepidium CTR107 variant TRIP (E36R, H40Y, Y106W; SEQ ID NO:24) (Chlorobaculum tepidum, UniProt Q8KFZ1, E36R/H40Y/Y106W); format: binding; conditions: FAM

Sequences of proteins named here, by UniProt entry; tags and fusion partners are left off.
UniProt Q929T5, entry or part of it E157A/E185L: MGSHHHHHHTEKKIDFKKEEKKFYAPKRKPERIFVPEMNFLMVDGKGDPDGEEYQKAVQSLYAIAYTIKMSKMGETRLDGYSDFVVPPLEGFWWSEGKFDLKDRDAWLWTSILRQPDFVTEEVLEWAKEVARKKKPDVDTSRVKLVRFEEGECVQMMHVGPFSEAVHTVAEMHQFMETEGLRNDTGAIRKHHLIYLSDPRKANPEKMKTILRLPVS
UniProt Q929T5, entry or part of it E185L: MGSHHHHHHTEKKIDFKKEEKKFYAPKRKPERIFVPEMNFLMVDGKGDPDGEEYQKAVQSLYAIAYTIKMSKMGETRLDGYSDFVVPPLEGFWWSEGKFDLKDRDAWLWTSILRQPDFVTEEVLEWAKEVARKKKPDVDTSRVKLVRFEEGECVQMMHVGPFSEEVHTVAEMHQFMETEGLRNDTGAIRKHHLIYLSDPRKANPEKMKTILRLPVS
UniProt Q8KFZ1, entry or part of it E36R/H40Y/Y106W: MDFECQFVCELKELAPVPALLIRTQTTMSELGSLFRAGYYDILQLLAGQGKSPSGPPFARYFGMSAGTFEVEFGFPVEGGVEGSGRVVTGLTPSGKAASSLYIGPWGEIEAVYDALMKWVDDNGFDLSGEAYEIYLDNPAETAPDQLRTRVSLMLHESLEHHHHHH

Compound | growth inhibition [1] | growth inhibition [2] | decrease in fluorescence [3] [fold] | changes in fluorescence quenching compared to LIN2189 WT [4] | fluorescence quenching [5]
CC1(C)S[C@@H]2[C@H](NC(=O)[C@H](N)c3ccccc3)C(=O)N2[C@H]1C(=O)O [Ampicillin] | substantially inhibited growth | substantially inhibited growth | – | – | –
5(6)-Carboxyfluorescein [FAM] | – | – | ~40 | no changes | loss of quenching properties
